UUG fidelity = modulators of yeast start codon fidelity, primary screen, whole organism, S. cerevisiae, single point, plate reader; S. cerevisiae UUG-firefly luciferase reporter, luminescence/redox ratio; activity score, % at 18.7 µM; actives 0.13% (n = 350,000);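 active means replicate mean at a twofold rise or more, about +100% in these data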;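 further: firefly luciferase made from a UUG start codon reports start codon fidelity; reporter light over untreated wells divided by growth signal over untreated wells; some hits fall short of that in this replicate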
PDI turbidity = inhibitors of human PDI, primary screen, biochemical, turbidity, single point, plate reader; PDI insulin aggregation turbidity, A650, 90 min; Protein disulfide-isomerase (Homo sapiens), P07237; 350,000 tested, 0.052% active; inhibition, % at 10 µM;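 active = mean inhibition across replicates of 30% or more, whatever share of single replicates reach that level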
ERp5 block = inhibitors of ERp5-driven insulin aggregation, primary screen, biochemical, turbidity, absorbance 650 nm, single point. inhibition, % at 9.99 µM. 90 min. 350,000 tested, 0.05% active;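 active = mean replicate inhibition above about 25%, with every replicate also reaching it, limit read from the data, passing the limit was not always enough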
FGF22 binding = binders of human FGF22 protein, primary screen, FGF22 synaptogenesis inhibitor project, biophysical, thermal shift, single point. Fibroblast growth factor 22 (Homo sapiens), Q9HCT0. AID 651658, 2012. recombinant FGF22 thermal shift, SYPRO orange fluorescence; percent of sucrose octasulfate shift, DMSO zero. 340,000 tested, 1.5% active. activity (Tm shift, normalised), % at 9.99 µM;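 active = mean Tm shift, scaled 0 neutral to 100 positive control, at about 1.3% or above, every replicate too, limit read from the data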
SIRT5 inh = SIRT5 desuccinylase inhibitors, primary screen, biochemical, fluorescence imaging, single point, set 5; NAD-dependent protein deacylase sirtuin-5, mitochondrial (Homo sapiens), Q9NXA8; Purified SirT5, succinyl-peptide AMC, trypsin-coupled fluorescence; inhibition, % at 15 µM; 330,000 tested, 1.1% active; in the data active = inhibition above about 15%
S100A4 inh HTS = inhibitors of S100A4-myosin IIA peptide binding, primary screen, biochemical, fluorescence polarization, TAMRA-MyoIIA peptide. Protein S100-A4 (Homo sapiens), P26447. inhibition, % at 10.7 µM. 360,000 tested, 0.14% active;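 active = mean inhibition of at least 70% across replicates, with every replicate also reaching that level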
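Test system: S100A4 monomer protein. Medium: HEPES buffer with Ca2+, pH 7.2. Reagent: fluorescent myosin IIA peptide, 5 nM. Compound dosing: single-point compound testing. Timing: 5 min between mix addition and reading. Benchmarks: DMSO neutral and TFP positive wells.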
* hit, by the source's call; · = no result. Rows were chosen to be rich in hits. Some 2.2% of all compounds tested hit in one or more screens of this group.

entry	mol	UUG fidelity	PDI turbidity	ERp5 block
1	C[C@@H]1CN([C@H](C)CO)C(=O)c2cccc(NC(=O)c3ccc(-c4nccs4)cc3)c2O[C@@H]1CN(C)C(=O)Nc1ccccc1	3.2	·	-8.5
2	COc1ccc(CN(C)C[C@H]2Oc3c(NC(=O)c4ccc(-c5nccs5)cc4)cccc3C(=O)N([C@@H](C)CO)C[C@@H]2C)cc1	-6.9	·	5.3
3	CCCNC(=O)C[C@H]1C[C@H]2c3cc(N(C)C)ccc3O[C@H]2[C@@H](CO)O1	·	·	2.4
4	C[C@@H]1CN([C@H](C)CO)C(=O)Cc2cc(NC(=O)Cc3cn(C)c4ccccc34)ccc2O[C@@H]1CN(C)C(=O)Nc1ccccc1	1.8	·	-0.6
5	CNC[C@H]1Oc2c(N)cccc2C(=O)N([C@H](C)CO)C[C@@H]1C	-6.2	·	-1.2
6	CNC[C@@H]1Oc2c(N)cccc2C(=O)N([C@H](C)CO)C[C@H]1C	-2.3	·	-1.6
7	COc1ccc(N(C)C(=O)Cc2c(C(=O)O)[nH]c3ccccc23)c(OC)c1	·	-5.4	5.2
8	COc1ccc(OC)c(CNC(=O)Cc2c(C(=O)O)[nH]c3ccccc23)c1	8.1	-2.9	·
9	O=C(NCc1ccccc1Cl)c1cc([N+](=O)[O-])ccc1Cl	·	-8.8	·
10	O=C(NCc1ccc(Cl)cc1)c1cc([N+](=O)[O-])ccc1Cl	·	-2.9	-0.2
11	C[C@H]1CN([C@@H](C)CO)S(=O)(=O)c2ccc(/C=C/c3ccccc3)cc2O[C@@H]1CN(C)C(=O)NC1CCCC1	1.0	·	-6.8
12	C[C@@H]1CN([C@H](C)CO)S(=O)(=O)c2ccc(/C=C/c3ccccc3)cc2O[C@@H]1CN(C)C(=O)NC1CCCCC1	·	·	5.3

entry	FGF22 binding	SIRT5 inh	S100A4 inh HTS
1	3.2*	5.7	3.4
2	-0.1	23.7*	-14.8
3	·	0.2	-4.5
4	-0.3	5.4	26.4
5	0.0	3.0*	7.8
6	0.0	1.9	4.3
7	43.9*	2.3	1.6
8	·	·	·
9	·	·	·
10	43.0*	-1.4	-1.1
11	-0.5	31.9*	7.3
12	-0.2	-9.5	2.7

The list goes on:
entry	mol	UUG fidelity	PDI turbidity	ERp5 block
13	C/C=C/c1ccc2c(c1)O[C@H](CN(C)C(=O)NC1CCCC1)[C@@H](C)CN([C@H](C)CO)S2(=O)=O	10.3	·	-4.4
14	C[C@@H]1CN([C@@H](C)CO)S(=O)(=O)c2ccc(/C=C/c3ccccc3)cc2O[C@@H]1CN(C)C(=O)NC1CCCC1	-10.7	·	12.2
15	C[C@H](CO)N1C[C@H](C)[C@H](CN(C)C(=O)NC2CCCC2)Oc2cc(/C=C/c3ccccc3)ccc2S1(=O)=O	-11.1	·	-2.0
16	C[C@@H]1CN([C@H](C)CO)S(=O)(=O)c2ccc(/C=C/c3ccccc3)cc2O[C@@H]1CN(C)C(=O)NC1CCCC1	-4.8	·	-6.3
17	C[C@@H]1CN([C@H](C)CO)S(=O)(=O)c2ccc(C#Cc3ccncc3)cc2O[C@H]1CN(C)C(=O)C1CCC1	3.2	·	-1.5
18	C/C=C/c1ccc2c(c1)O[C@@H](CN(C)Cc1ccccc1)[C@@H](C)CN([C@H](C)CO)S2(=O)=O	-8.1	·	-3.8
19	C[C@H]1CN([C@@H](C)CO)S(=O)(=O)c2ccc(/C=C/c3ccccc3)cc2O[C@@H]1CN(C)Cc1ccccc1	·	·	0.5
20	C[C@H]1CN([C@@H](C)CO)S(=O)(=O)c2ccc(/C=C/c3ccccc3)cc2O[C@H]1CN(C)Cc1ccc(C(=O)O)cc1	-2.0	·	3.4
21	C[C@@H]1CN([C@@H](C)CO)S(=O)(=O)c2ccc(/C=C/c3ccccc3)cc2O[C@@H]1CN(C)Cc1ccccc1	·	·	-1.0
22	COc1ccc(S(=O)(=O)Nc2cccc3c2O[C@H](CN(C)Cc2ccc(C(=O)Nc4ccccc4N)cc2)[C@@H](C)CN([C@@H](C)CO)C3=O)cc1	·	·	·
23	O=C(CC1CC1)N1CC(=O)N2[C@@H](CO)[C@H](c3ccc(C#Cc4ccccc4)cc3)[C@@H]2C1	·	·	-0.8
24	CC(=O)N(C[C@@H]1[C@@H](c2ccc(C3=CCCC3)cc2)[C@@H](CO)N1CC1CC1)C(C)C	·	·	-1.7

entry	FGF22 binding	SIRT5 inh	S100A4 inh HTS
13	-0.2	-2.6	0.1
14	0.0	20.2*	-12.5
15	-0.2	16.2*	-4.5
16	-0.4	21.1*	-4.6
17	-0.2	-2.3	34.4
18	0.0	3.4	0.8
19	0.0	21.6*	5.0
20	0.0	19.4*	8.5
21	-0.2	18.6*	-53.1
22	-0.1	-2.2	·
23	·	0.6	4.7
24	·	1.2	-5.5

Entries of single compounds, looked up by structure. Screens in order: UUG fidelity, PDI turbidity, ERp5 block, FGF22 binding, SIRT5 inh, S100A4 inh HTS
`O=C(CC1CC1)N1CC(=O)N2[C@@H](CO)[C@H](c3ccc(C#Cc4ccccc4)cc3)[C@@H]2C1` as listed: ·, ·, -0.8, ·, 0.6, 4.7
`C[C@@H]1CN([C@H](C)CO)S(=O)(=O)c2ccc(/C=C/c3ccccc3)cc2O[C@@H]1CN(C)C(=O)NC1CCCC1` as listed: -4.8, ·, -6.3, -0.4, 21.1*, -4.6

The list goes on.
entry	mol	UUG fidelity	PDI turbidity	ERp5 block
25	Cc1c(-n2cc(C(=O)c3cc(Br)ccc3O)cc(C#N)c2=O)c(=O)n(-c2ccccc2)n1C	-10.3	35.2*	·
26	O=C(NC1CCCCC1)[C@@H]1[C@@H](CO)[C@@H]2Cn3c(cccc3=O)[C@@H]2N1CC1CCCC1	·	·	0.0
27	COC(=O)[C@H]1[C@H](CO)[C@H]2Cn3c(cccc3=O)[C@H]2N1CC1CCCCC1	·	·	8.0
28	COC(=O)[C@@H]1[C@@H](CO)[C@@H]2Cn3c(cccc3=O)[C@@H]2N1CC1CCOCC1	·	·	-3.2
29	O=C(Nc1ccc(-c2ccccc2)cc1)[C@@H]1[C@@H](CO)[C@@H]2Cn3c(cccc3=O)[C@@H]2N1CC1CCCC1	·	·	-1.7
30	O=C(NC1CCCCC1)[C@H]1[C@H](CO)[C@H]2Cn3c(cccc3=O)[C@H]2N1C(=O)CC1CC1	·	·	-6.1
31	COc1ccc(-c2cnc3c(c2)C(=O)N([C@@H](C)CO)C[C@H](C)[C@@H](CN(C)S(C)(=O)=O)O3)cc1	9.2	·	1.9
32	C[C@H]1CCCCO[C@H](CN(C)C)[C@@H](C)CN([C@@H](C)CO)C(=O)c2cc(NC(=O)c3ccncc3)ccc2O1	-12.2	·	2.7
33	C[C@@H]1CN([C@@H](C)CO)C(=O)c2cc(NS(=O)(=O)c3ccccc3)ccc2O[C@@H](C)CCCCO[C@H]1CN(C)C(=O)Nc1cccc2ccccc12	-7.3	·	-3.0
34	C[C@@H]1CN([C@@H](C)CO)C(=O)c2cc(NC(=O)Nc3ccc(F)cc3)ccc2O[C@@H](C)CCCCO[C@@H]1CN(C)C(=O)C1CCCCC1	-11.3	·	2.0
35	COc1ccc(NC(=O)Nc2ccc3c(c2)C(=O)N([C@@H](C)CO)C[C@H](C)[C@H](CN(C)C(=O)c2ccccc2)OCCCC[C@H](C)O3)cc1	7.6	·	-3.5

entry	FGF22 binding	SIRT5 inh	S100A4 inh HTS
25	·	·	·
26	·	21.5*	4.9
27	0.0	-0.2	10.7
28	0.2	2.5	87.6*
29	0.3	15.4*	2.8
30	-0.3	8.2	102.1*
31	-0.2	-2.9	5.8
32	-0.2	0.3	-8.2
33	-0.1	-1.3	-23.2
34	-0.2	7.4	-6.6
35	1.4*	1.9	3.2

Entries above that bear a hit mark in S100A4 inh HTS:
#	Structure	UUG fidelity	PDI turbidity	ERp5 block	SIRT5 inh	S100A4 inh HTS
28	COC(=O)[C@@H]1[C@@H](CO)[C@@H]2Cn3c(cccc3=O)[C@@H]2N1CC1CCOCC1	·	·	-3.2	2.5	87.6*
30	O=C(NC1CCCCC1)[C@H]1[C@H](CO)[C@H]2Cn3c(cccc3=O)[C@H]2N1C(=O)CC1CC1	·	·	-6.1	8.2	102.1*
